This is an account of results in patent EP4471048A1, “PEPTIDE INHIBITORS OF INTERLEUKIN-23 RECEPTOR” (Zealand Pharma A/S, priority 2023, dated 2024).

The target in assay [1] is IL-23 mediated signalling (Homo sapiens, UniProt Q5VWK5). Description: Functional inhibition of IL-23 mediated STAT3 signalling (phospho-STAT3 MSD) in DB cells. The conditions noted are these: Table 3-2, hIL-23 at EC80, read-out: hIL-23 (pSTAT3) antagonist IC50. It is filed as cell-based.
The target in assay [2] is T1, human IL-23R (Homo sapiens, UniProt Q5VWK5).
T1 sequence (Q5VWK5 22-629): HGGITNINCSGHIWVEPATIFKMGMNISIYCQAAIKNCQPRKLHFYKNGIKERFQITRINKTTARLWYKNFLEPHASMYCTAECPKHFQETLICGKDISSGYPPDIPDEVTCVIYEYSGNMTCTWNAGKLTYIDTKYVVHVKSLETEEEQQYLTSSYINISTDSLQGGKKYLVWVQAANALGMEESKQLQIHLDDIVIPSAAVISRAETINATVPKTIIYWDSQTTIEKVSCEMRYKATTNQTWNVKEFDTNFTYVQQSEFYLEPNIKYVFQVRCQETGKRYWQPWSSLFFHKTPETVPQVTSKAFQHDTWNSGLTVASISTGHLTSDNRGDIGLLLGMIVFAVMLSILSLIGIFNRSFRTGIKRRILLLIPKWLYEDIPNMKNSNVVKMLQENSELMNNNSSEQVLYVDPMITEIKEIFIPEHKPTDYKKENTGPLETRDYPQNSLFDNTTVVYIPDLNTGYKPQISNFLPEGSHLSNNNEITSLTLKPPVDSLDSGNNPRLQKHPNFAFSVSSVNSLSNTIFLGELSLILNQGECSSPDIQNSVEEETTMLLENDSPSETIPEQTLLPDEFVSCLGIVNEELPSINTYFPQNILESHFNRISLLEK
Description: biochemical.

Each structure is given as a SMILES string.

For orientation: IC50 means the concentration needed to halve the response being measured. For the compound `CC(C)C[C@]1(C)NC(=O)[C@H](Cc2ccc3ccccc3c2)NC(=O)[C@H](Cc2ccc(OCCN)cc2)NC(=O)[C@@H]2CCC(=O)N[C@@H](CCCNC(=O)CC[C@@H](C(=O)N[C@@H](CCN)C(=O)N[C@@H](Cc3cccnc3)C(N)=O)NC1=O)CC(=O)N[C@@H]([C@@H](C)O)C(=O)N[C@@H](C(C)C)C(=O)N[C@@H](Cc1c[nH]c3ccccc13)C(=O)N[C@@H](CCC(N)=O)C(=O)N2` [Compound 12, [bLys](1c)(6c)^†TVWQE(6c)[Y(2-aminoethoxy)][2-Nal][2-Me-Leu]E(1c)[Dab][3-(3-Pyridyl)-Ala]-[NH2]], in assay [1], the half-maximal inhibitory concentration (IC50) is 1.3 nM.
As for `CNC(=O)[C@H](Cc1cccnc1)NC(=O)[C@H](CCN)NC(=O)[C@@H]1CCCNC(=O)CC[C@@H]2NC(=O)CC[C@H](NC(=O)[C@H](CCC(N)=O)NC(=O)[C@H](Cc3c[nH]c4ccccc34)NC(=O)[C@H]([C@@H](C)O)NC2=O)C(=O)N[C@@H](Cc2ccc(OCCN)cc2)C(=O)N[C@@H](Cc2ccc3ccccc3c2)C(=O)N[C@@](C)(CC(C)C)C(=O)N1` [Compound 40, E(1c)(6c)^†TWQE(6c)[Y(2-aminoethoxy)][2-Nal][2-Me-Leu][Orn](1c)[Dab][3-(3-Pyridyl)-Ala]-[NHMe]], the IC50 in assay [2] worked out at 1.3 nM.
